Measured values taken from US12599130B2, “Liquid agricultural adjuvant” (Oro Agri Inc., priority 2019, dated 2026).

Assay: Paraffin wax solubility test
Assay type: physicochemical
Conditions: 2.0 g paraffin wax in 98 g solvent, 25° C., stirring at 350 rpm

CCCCCCCCCCCCCC(=O)OC(C)C [ISOPROPYL MYRISTATE]
DISSOLUTION TIME: 627 min
